These are literature values, as cited in patent US20250032449A1, “TREATMENT OF RHEUMATOID ARTHRITIS” (SYNACT PHARMA APS, priority 2021, published 2025).

For the data set the following is noted: PCT/EP2022/066906; cited from earlier work.

As for “(E)-N-trans-{3-[1-(2-nitrophenyl)-1H-pyrrol-2-yl]-allylidene}-aminoguanidinium acetate [AP1189]”, the “Solubility at low pH” value is given as “highly soluble at low pH”.

Regarding “(E)-N-trans-{3-[1-(2-nitrophenyl)-1H-pyrrol-2-yl]-allylidene}-aminoguanidinium succinate [AP1189 succinate]”, the “Solubility at low pH” value is given as “highly soluble at low pH”.
